In PubChem BioAssay AID504692 (The Scripps Research Institute Molecular Screening Center, 2011):
The entries are a selection whose mix differs from that of the whole data set. Some results for these compounds are left out of this collection, so the calls shown say nothing about other tests. Active and inactive are the calls of the source. Rule as the data show it: active = activation mostly above about 9.5% (no sharp cut-off); inactive = mostly below about 7.6%.

Protein sequences, listed by entry. Tags and fused reporters are not part of them.
UniProt P47898, whole entry: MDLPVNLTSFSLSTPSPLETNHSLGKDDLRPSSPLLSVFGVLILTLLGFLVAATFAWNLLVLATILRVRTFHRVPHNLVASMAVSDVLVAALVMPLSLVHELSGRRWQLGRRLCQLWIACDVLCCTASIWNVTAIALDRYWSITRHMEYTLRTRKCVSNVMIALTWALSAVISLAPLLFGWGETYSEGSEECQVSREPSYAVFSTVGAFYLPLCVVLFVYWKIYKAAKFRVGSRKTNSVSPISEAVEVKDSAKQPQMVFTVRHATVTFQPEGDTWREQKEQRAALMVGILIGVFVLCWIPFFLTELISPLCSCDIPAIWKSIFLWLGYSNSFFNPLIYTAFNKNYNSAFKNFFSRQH

Molecular target: 5-hydroxytryptamine receptor 5A (Homo sapiens) (UniProt P47898)
Assay: activation of human 5-HT5A receptor – cell-based, luminescence, full-deck HTS, counter-screen for OPRM1-OPRD1 heterodimer agonist project, primary screen (AID 504692);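 also: 0% = cells with vehicle only and 100% = reference agonist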
Details: HTR5A agonist assay, at 9.3 µM, active compounds read high

| SMILES | activation |
| --- | --- |
| O=C(OC1CN2CCC1CC2)C(CO)(c1ccccc1)c1ccccc1 (stereo not given) | inactive: -4.98% |
| CN(C)c1cccc(C(=O)NCC2(N(C)C)CCCCC2)c1 | inactive: 0.14% |
| CC(C)Oc1ccc(C(=O)NCC2(N(C)C)CCCCC2)cc1 | inactive: 0.1% |
| O=C(OCCN1CCCC1)C(O)(c1ccccc1)c1ccccc1 | inactive: 1.26% |
| COc1ccc(Br)c(C(=O)NCC2(N3CCCCC3)CCCCC2)c1 | inactive: -1.36% |
| COc1cc(C(=O)NCC2(N(C)C)CCCCC2)c([N+](=O)[O-])cc1OC | inactive: -1.2% |
| CN(C)C1(CNC(=O)c2ccc(Br)cc2)CCCCC1 | inactive: -0.71% |
| O=C(NCC1(N2CCCCC2)CCCCC1)c1cccc(Cl)c1 | inactive: 1.28% |
| COc1cccc(C(=O)NCC2(N3CCCCC3)CCCCC2)c1 | inactive: 0.68% |
| COc1ccc(Cl)cc1C(=O)NCC1(N(C)C)CCCCC1 | inactive: 6.43% |
| Cc1ccccc1C(=O)NCC1(N2CCCCC2)CCCCC1 | inactive: -1.47% |
| CN(C)C1CCCC1OC(=O)C(O)(c1ccccc1)c1ccccc1 (stereo not given) | inactive: 3.56% |
| CN(C)c1ccc(C(=O)NCC2(N(C)C)CCCCC2)cc1 | inactive: -4.26% |
| Cc1cc(C(=O)NCC2(N3CCCCC3)CCCCC2)ccc1[N+](=O)[O-] | inactive: -4.16% |
| CCN1CCCC(OC(=O)C2(O)c3ccccc3C=Cc3ccccc32)C1 (stereo not given) | inactive: 5.81% |
| O=C(NCC1(N2CCCCC2)CCCCC1)c1cccc(Br)c1 | inactive: 4.82% |
| COc1ccc(C(=O)NCC2(N(C)C)CCCCC2)cc1 | inactive: -5.19% |
| C=CCN1CCN(CCOC(=O)C(O)(c2ccccc2)c2ccccc2)CC1 | inactive: 2.59% |
| O=C(NCC1(N2CCCCC2)CCCCC1)c1cc(F)c(F)cc1Cl | inactive: 0.68% |
| CN1[C@@H]2CC[C@H]1CC(OC(=O)C(O)(c1ccccc1)c1ccccc1)C2 (stereo not given in full) | inactive: -1.62% |
| O=C(NCC1(N2CCCCC2)CCCCC1)c1cc([N+](=O)[O-])ccc1Cl | inactive: 0.68% |
| Cc1ccc(C(=O)NCC2(N3CCCCC3)CCCCC2)cc1 | inactive: 3.53% |
| CC(C)N1C(=O)CC2(CCN(CCOC(=O)C(O)(c3ccccc3)c3ccccc3)CC2)C1=O | inactive: 1.43% |
| CCN(CC)CC(C)C(C)OC(=O)C(O)(c1ccccc1)c1ccccc1 (stereo not given) | inactive: 2.01% |
| COc1cc(SC)ccc1C(=O)NCC1(N(C)C)CCCCC1 | inactive: -4.02% |
